The numbers were not newly measured in patent US10813929B2, “Treating cancer with ATR inhibitors” (VERTEX PHARMACEUTICALS INCORPORATED, priority 2011, dated 2020), which cites them from elsewhere.

This data set has as its system pancreatic cancer. As to conditions: combined with gemcitabine, cited from earlier work.

cetuximab: the clinical benefit entry is listed as “no clinical benefit”. For the same substance, the overall survival (versus 5.91 months) was 6.24 months.
